Data reported in US9828352B2, “Phenyl carbamates and their use as inhibitors of the fatty acid amide hydrolase (FAAH) enzyme and modulators of the D3 dopamine receptor (D3DR)” (FONDAZIONE ISTITUTO ITALIANO DI TECNOLOGIA, priority 2013, dated 2017).

By UniProt entry, the sequences of proteins in these tests, tags left out. Where a name states a change or a piece, a line headed by the entry shows the natural chain unless it says otherwise.
UniProt P35462, whole entry: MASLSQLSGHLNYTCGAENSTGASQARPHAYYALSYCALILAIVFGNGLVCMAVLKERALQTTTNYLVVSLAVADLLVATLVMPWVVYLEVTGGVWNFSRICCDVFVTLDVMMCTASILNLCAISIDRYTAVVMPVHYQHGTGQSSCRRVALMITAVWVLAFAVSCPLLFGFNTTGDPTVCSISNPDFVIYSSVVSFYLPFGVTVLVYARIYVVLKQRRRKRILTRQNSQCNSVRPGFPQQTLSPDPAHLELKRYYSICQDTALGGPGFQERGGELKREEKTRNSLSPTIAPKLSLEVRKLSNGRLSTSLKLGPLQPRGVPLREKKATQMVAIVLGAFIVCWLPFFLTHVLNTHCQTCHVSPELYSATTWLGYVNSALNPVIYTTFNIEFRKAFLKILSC

Biological target: T1, human-D3R (Homo sapiens, UniProt P35462)
T1 construct: expressed in transfected cells; host or cells: CHO cell line stably transfected with human D3R
Assay: D3 Dopamine Receptor (D3dR) cellular assay, cAMP HTRF functional assay in human-D3R expressing CHO cells
Format: cell-based
Details: one experiment in duplicate
Procedure: D3 Dopamine Receptor (D3dR) Cellular Assay
Activity on D3R was tested with a cAMP functional assay on a stably transfected human-D3R expressing CHO cell line. On the day of the assay performance the cells were washed twice with PBS (w/o calcium and magnesium) and dislodged with a cell scraper, transferred to PBS, centrifuged and re-suspended in HBSS (w/o calcium and magnesium), supplemented with 1 g/L glucose and […] IBMX. The cell suspension was seeded on a 384 well plate (Greiner) and the assay was performed by adding compounds either test compounds alone (for agonist activity), or with test compound after a pre-incubation with 10 nM Dopamine as a stimulant (for antagonistic activity). After incubation (30 min at RT) the cell stimulation was stopped by adding the detecting reagents (cAMP-XL665 and anti-cAMP cryptate) diluted in lysis buffer. The signal was quantified by Homogenous Time-Resolved Fluorescence (HTRF) on a Perkin Elmer Envision plate reader after one hour of incubation at RT.
EC50 or IC50 values (concentrations causing half-maximal response or inhibition of control agonist response) were determined by non-linear regression analysis of the Log [concentration]/response curves generated with mean replicate values using a four parameter Hill equation curve fitting with GraphPad Prism 5 (GraphPad Software Inc., CA—USA).

NC(=O)c1cccc(-c2ccc(OC(=O)NCCCCN3CCN(c4cccc(Cl)c4Cl)CC3)cc2F)c1 [Example 21, [4-(3-carbamoylphenyl)-3-fluoro-phenyl] N-[4-[4-(2,3-dichlorophenyl)piperazin-1-yl]butyl]carbamate]
EC50: 18.6 nM
